Assay results as given in article PMC8200842 (The Journal of General Physiology, 2021).

By UniProt entry, the sequences of proteins in these tests, tags left out. Where a name states a change or a piece, a line headed by the entry shows the natural chain unless it says otherwise.
UniProt P30878: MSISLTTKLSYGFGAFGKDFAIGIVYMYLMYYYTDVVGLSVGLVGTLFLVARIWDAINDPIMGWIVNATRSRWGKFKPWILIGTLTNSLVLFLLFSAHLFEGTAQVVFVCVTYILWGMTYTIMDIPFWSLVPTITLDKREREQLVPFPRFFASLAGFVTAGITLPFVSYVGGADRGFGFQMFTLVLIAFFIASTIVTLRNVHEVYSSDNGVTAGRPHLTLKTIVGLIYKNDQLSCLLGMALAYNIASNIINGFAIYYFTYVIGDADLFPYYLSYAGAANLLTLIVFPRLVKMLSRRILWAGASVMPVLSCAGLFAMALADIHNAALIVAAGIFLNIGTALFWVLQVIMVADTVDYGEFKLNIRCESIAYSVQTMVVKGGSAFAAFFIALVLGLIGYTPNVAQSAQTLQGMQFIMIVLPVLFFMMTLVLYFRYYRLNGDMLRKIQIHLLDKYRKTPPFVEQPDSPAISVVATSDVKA

Biological target: Salmonella typhimurium melibiose permease MelB (MelBSt), wild type (Salmonella typhimurium, UniProt P30878 1-476)
Experiment: ITC

B1: E. coli glucose-specific phosphotransferase EIIA^Glc, unphosphorylated form (natural protein)
chain: MGLFDKLKSLVSDDKKDTGTIEIIAPLSGEIVNIEDVPDVVFAEKIVGDGIAIKPTGNKMVAPVDGTIGKIFETNHAFSIESDSGVELFVHFGIDTVELKGEGFKRIAEEGQRVKVGDTVIEFDLPLLEEKAKSTLTPVVISNMDEIKELIKLSGSVTVGETPVIRIKK
With B1 the Kd was 4.31 µM.
